Laboratory results published in paper PMC8081378 (Mutagenesis, 2019).

Tested on: EpiDerm™ skin tissues
Assay: reconstructed skin micronucleus
Format: cell-based, human

## CO[C@@]12[C@H](COC(N)=O)C3=C(C(=O)C(C)=C(N)C3=O)N1C[C@@H]1N[C@@H]12 [MMC, mitomycin C]
Positive control 0.05 µg/cm^2, three treatments over 72 h
  MN formation (% MN-BN): highly significant increases in MN formation
Positive control 0.05 µg/cm^2, two treatments over 48 h
  MN formation (% MN-BN): highly significant increases in MN formation
